Target: Histone deacetylase 1 (Homo sapiens, UniProt Q13547)
Test: Inhibition of recombinant human full-length C-terminal FLAG/His-tagged HDAC1 (1 to 482 residues) expressed in baculovirus infected Sf9 insect cells using RHKK(Ac)AMC as substrate preincubated for 5 to 10 mins followed by substrate addition and measured after 2 hrs by fluorescence assay

Protein sequences, listed by entry. Tags and fused reporters are not part of them.
UniProt Q13547, whole entry: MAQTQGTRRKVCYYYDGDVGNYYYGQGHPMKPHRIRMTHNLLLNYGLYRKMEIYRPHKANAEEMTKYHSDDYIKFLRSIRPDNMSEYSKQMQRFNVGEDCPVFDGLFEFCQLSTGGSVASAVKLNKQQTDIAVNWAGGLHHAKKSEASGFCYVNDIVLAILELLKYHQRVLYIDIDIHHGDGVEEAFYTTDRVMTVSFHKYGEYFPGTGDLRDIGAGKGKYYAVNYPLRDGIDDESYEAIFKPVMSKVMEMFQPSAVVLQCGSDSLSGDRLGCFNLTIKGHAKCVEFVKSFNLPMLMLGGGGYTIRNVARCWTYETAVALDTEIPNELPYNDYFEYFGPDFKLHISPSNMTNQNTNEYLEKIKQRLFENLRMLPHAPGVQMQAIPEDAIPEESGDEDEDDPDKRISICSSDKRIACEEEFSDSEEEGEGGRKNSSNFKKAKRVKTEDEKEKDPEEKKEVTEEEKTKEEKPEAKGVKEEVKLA

O=C(/C=C/c1ccc(NC(=O)Nc2ccc(Cl)cc2)cc1)NO
IC50: 3.26 µM

Source: ChEMBL document CHEMBL4706706, “Structure-activity relationship and mechanistic studies for a series of cinnamyl hydroxamate histone deacetylase inhibitors” (Bioorg Med Chem, 2021)
